# Antibody variant affinities, Ab-95 light chain, assay 2

The measurements come from Engelhart et al. 2022 (doi:10.1038/s41597-022-01779-4) through the FLAb antibody collection.

Antigen: PDVDLGDISGINAS, a 14-residue peptide of the SARS-CoV-2 spike HR2 region.

The variants keep the heavy chain, the linker and the frameworks of Ab-95 (scFv order VH, three GGGGS repeats, VL).
VH: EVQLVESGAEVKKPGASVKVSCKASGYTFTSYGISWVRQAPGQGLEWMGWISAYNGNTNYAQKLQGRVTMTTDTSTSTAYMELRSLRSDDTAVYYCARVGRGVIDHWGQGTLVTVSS
VL: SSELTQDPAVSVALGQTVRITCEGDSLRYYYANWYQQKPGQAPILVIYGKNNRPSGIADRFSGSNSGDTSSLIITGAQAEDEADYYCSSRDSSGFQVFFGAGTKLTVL

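Phage display of a naive human antibody library on the peptide gave the parent. Variants in AAYL52 differ from the parent at up to three CDR positions; double and triple changes were sampled at random. Affinity was read by AlphaSeq, a pooled yeast mating assay with surface-displayed partners. Pairs that bind mate more often; barcode pairs of the diploids are counted by sequencing. Each replicate has its own calibration line, from reference interactions of the BCL2 family. There are three technical replicates.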

The parent's light chain CDRs are EGDSLRYYYAN, GKNNRPS, SSRDSSGFQVF; each variant's own CDRs replace them letter for letter.
Affinities are written as log10 Kd with Kd in nM; a lower number is a better binder.
"n.d." means that the variant was in the library but no mating with the target was seen in that replicate; the authors take this as a sign of poor binding, and no number exists.
For reference, the parent read 2.31 as the reference entry and 2.25 as a member of this library.
Background: pairings of library AAYL52 with three empty control strains gave a value in 28% of cases (median 3.91, 5th percentile 2.90). Values in that range, when seen in few replicates, are hard to tell from nonspecific mating. Also given: how often the same scFv was detected with the empty control strains, with their mean in brackets.

CDR-L1	CDR-L2	CDR-L3	log10 Kd, replicates	signal with controls
EGDRLRYYYAN	HKNNRPS	SSRDMSGFQVF	5.50 / 4.89 / n.d.	4 of 9 (4.11)
EGDSHRYYYAT	QKNNRPS	SSRDSSGFQVF	4.05 / 3.90 / n.d.	2 of 9 (3.94)
EGDSLRYFYAE	GKNNRPS	SSRDSSGFQVY	4.10 / n.d. / n.d.	2 of 9 (3.75)
DGDSLRYYYAN	PYNNRPS	SSRDSSGFQVF	4.41 / 4.14 / n.d.	5 of 9 (3.66)
ELDSEQYYYAN	GKNNRPS	SSRDSSGFQVF	3.74 / 2.75 / 3.05	3 of 9 (4.41)
EGDVLRYYYAW	GKHNRPS	SSRDSSGFQVF	n.d. / 3.70 / 4.58	5 of 9 (4.59)
EGMSLRYYYAN	GHNNRPS	SSRDSSGFNVF	2.27 / 2.38 / 2.32	4 of 9 (4.07)
EGPSLRYYYAN	GDNNRPS	SSRQSSGFQVF	3.66 / 3.01 / 3.58	3 of 9 (3.83)
EGGSLRWYYAN	GKNNCPS	SSRDSSGFQVF	3.46 / n.d. / 4.33	5 of 9 (3.85)
EGDSLRYYYAQ	GKNNRPS	SSWDSSGFQHF	4.36 / 3.41 / n.d.	2 of 9 (3.82)
ETDSLRYYYAN	GHNERPS	SSRDSSGFQVF	n.d. / 3.62 / 2.65	2 of 9 (4.66)
PGDSLRYYYAN	GKNNRPS	SSRDSNGFQEF	n.d. / n.d. / n.d.	1 of 9 (4.29)
TGDSLRYYNDN	GKNNRPS	SSRDSSGFQVF	n.d. / 3.69 / 3.62	3 of 9 (3.08)
EGDSLRYYYAN	GKNNRPS	SSAESMGFQVF	2.72 / 2.64 / 2.40	3 of 9 (3.68)
EGDSLRYYNAN	GKNKGPS	SSRDSSGFQVF	2.38 / 2.19 / 2.71	0 of 9
EGDSLRYYYAN	GKPNFPS	SCRDSSGFQVF	n.d. / n.d. / n.d.	1 of 9 (4.48)
EGDSLRYYYAS	GKNNRPS	SDRDSSGFQVP	3.02 / n.d. / 4.13	1 of 9 (4.57)
ECDSLRYTYAN	GKNNRPS	SSRYSSGFQVF	n.d. / n.d. / n.d.	0 of 9
EHDILRYYYAN	GKNHRPS	SSRDSSGFQVF	3.62 / 4.83 / n.d.	1 of 9 (2.91)
EGDSLRYYYAN	GKNNRPV	SGRWSSGFQVF	3.70 / n.d. / n.d.	0 of 9
EGDSLRKYYAN	GKNNRPS	SSRDSSMFQVF	n.d. / 3.93 / 3.35	1 of 9 (3.66)
EGDILRYYEAN	GKNNRPS	SSRDSSGDQVF	3.68 / 3.76 / n.d.	1 of 9 (3.54)
EGDLLRAYYAN	GKNNRPS	SSRDSSGFQVF	n.d. / n.d. / n.d.	3 of 9 (3.95)
EGDSLSYYYAN	GKNTRPS	SSRDSSFFQVF	3.80 / 2.53 / 2.51	3 of 9 (4.45)
EGDSLRMYYAD	GKWNRPS	SSRDSSGFQVF	n.d. / 3.98 / n.d.	3 of 9 (3.81)
EGDSLRYYYAN	GKNNRPS	ISRDSSGFQAF	n.d. / n.d. / n.d.	1 of 9 (3.43)
EGDSNRSYYAN	GKNNRPS	SSRDSSMFQVF	2.37 / 2.95 / 3.08	3 of 9 (3.98)
EGDSLRYYYAN	GWNNRPS	SGRDSSGCQVF	3.27 / 4.08 / 3.62	4 of 9 (3.89)
VGDSLRYYYAN	GKNNRKS	SSRDSNGFQVF	2.74 / 2.80 / 3.81	1 of 9 (3.07)
EGRSLRYYYAN	GKNNRWY	SSRDSSGFQVF	n.d. / 3.60 / n.d.	2 of 9 (4.43)
EGDSLIYYYAN	GKNWRPS	SSRDSSGFQVF	4.60 / 3.34 / 3.51	1 of 9 (4.14)
EGDSLRYYYAN	GKNNRPS	SSRDSSGFQVP	2.57 / 2.46 / 2.46	1 of 9 (3.39)
EGTSLRYYYHN	GKNNRPS	SSRDLSGFQVF	4.12 / n.d. / n.d.	1 of 9 (5.35)
EQDSLRYYYAN	GKNNRPS	SSRDSSSFAVF	3.95 / 4.08 / 3.48	3 of 9 (3.51)
EGDHLRYYYSN	GKNNRPS	SSRDSKGFQVF	3.13 / n.d. / 4.13	1 of 9 (5.66)
EGDVLRYSYAN	GKNNRPS	SSRDSWGFQVF	1.79 / 1.40 / 1.55	5 of 9 (4.11)
EGDSLRYYYAS	GKTNRPS	SSRDSSGFWVF	4.23 / 4.10 / 4.69	2 of 9 (4.76)
EGDWLRYYYAN	GKNNRPS	SSRDCSGGQVF	3.64 / n.d. / n.d.	3 of 9 (4.13)
EGDSLRYYYAN	GKNNRPS	SSRFSSGFYVF	2.46 / 2.88 / 2.41	5 of 9 (3.94)
EGDSLEYYYAN	GKNNRPS	TSRDSSGFSVF	4.12 / 3.19 / n.d.	3 of 9 (4.14)

From the list, the first 3 with no signal in any replicate:

CDR-L1	CDR-L2	CDR-L3	log10 Kd, replicates	signal with controls
PGDSLRYYYAN	GKNNRPS	SSRDSNGFQEF	n.d. / n.d. / n.d.	1 of 9 (4.29)
EGDSLRYYYAN	GKPNFPS	SCRDSSGFQVF	n.d. / n.d. / n.d.	1 of 9 (4.48)
ECDSLRYTYAN	GKNNRPS	SSRYSSGFQVF	n.d. / n.d. / n.d.	0 of 9